Our source for the outcome values is PubChem BioAssay AID492993 (Johns Hopkins Ion Channel Center, 2010).

By UniProt entry, the sequences of proteins in these tests, tags left out.
UniProt P35561, whole entry: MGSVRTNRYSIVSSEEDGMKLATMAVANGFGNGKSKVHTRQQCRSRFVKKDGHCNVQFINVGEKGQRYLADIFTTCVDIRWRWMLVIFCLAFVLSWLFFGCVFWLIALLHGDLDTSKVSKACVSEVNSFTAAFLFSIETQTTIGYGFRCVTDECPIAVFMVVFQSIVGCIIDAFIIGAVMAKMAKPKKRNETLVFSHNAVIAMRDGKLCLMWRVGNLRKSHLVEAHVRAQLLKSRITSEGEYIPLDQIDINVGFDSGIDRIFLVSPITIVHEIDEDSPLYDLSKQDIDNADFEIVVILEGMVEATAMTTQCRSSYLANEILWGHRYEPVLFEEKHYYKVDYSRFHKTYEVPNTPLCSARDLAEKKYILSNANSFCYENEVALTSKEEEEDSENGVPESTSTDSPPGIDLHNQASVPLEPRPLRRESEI

Only a part is listed here, and it is no random draw. The source made the active and inactive calls.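 Rule for the calls: active = thallium signal drop more than 5 SD beyond the mean of the no-compound control wells, seen in both duplicate plates; inactive = the rest.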

This test addresses Inward rectifier potassium channel 2 (Mus musculus) (UniProt P35561). The test is described as follows: off-target Kir2.1 potassium flux block – cell-based, HEK293, thallium flux, selectivity assay for KCNK9 modulator project, confirmation (AID 492993). As to conditions: Kir2.1 cells, FluxOR thallium flux fluorescence; at 10 µM.
In the case of `COc1cccc(C(=O)N(c2cc(C)cc(C)c2)C2CCN(C(=O)OC(C)(C)C)CC2)c1`, the outcome was inactive.
For `CC(C)(C)OC(=O)N1CCC(N(C(=O)c2ccccc2)c2ccc(Cl)cc2)CC1`, the call was inactive.
As for `Cc1cc(C)cc(N(C(=O)c2ccccc2)C2CCN(C(=O)OC(C)(C)C)CC2)c1`, the outcome was inactive.
The entry for `CC(C)(C)OC(=O)N1CCC(N(C(=O)c2ccccc2)c2ccc(F)cc2)CC1` is “inactive”.
